Data as given in patent publication US20090035440A1, “Compositions comprising polyphenol” (Conopco, Inc. d/b/a Unilever, priority 2007, published 2009).

Assay: Appearance of EGCG/complexing agent mixed systems (Example 1)
Assay type: physicochemical
Conditions: 0.6 wt % EGCG and 0.6 wt % CA
Experimental: Stock solutions containing 1.2 wt % EGCG were prepared by adding the powder to de-ionized water (conductivity=18.2 MΩ.cm) and stirring at 40° C. Stock Solutions of PVP, WPI, L-proline and poly-L-proline, were each prepared by dissolving in de-ionized water 25° C. to give a concentration of 1.2 wt %. Stock solutions of pectin, were prepared by dissolving powder in de-ionized water at 80° C. for 1 hour and then cooling to 25° C. After dissolving the material, the pH of all samples, except for the WPI, was adjusted to 5.0 using 0.01 HCl or 0.1 M NaOH. The WPI was used at a pH of 6.5 to avoid precipitation of the whey proteins. In all cases the maximum ionic strength would remain below 10 mM. After setting the pH, mixed systems were prepared by quickly adding a fixed weight of the stock EGCG-solution into the same weight of complexing agent (CA)-solution under continuous stirring. Thus the final samples contained 0.6 wt % EGCG and 0.6 wt % CA.

Appearance: Transparent
Substance: poly-L-proline
